Experimental data reported in US5700469A, “HIV-1 core protein fragments” (Medical Research Council, priority 1990, dated 1997).

Test system: human leucocyte antigen (HLA) class I molecule
Experiment: CTL assay: lysis of 51-chromium labelled, HLA-matched B lymphoblastoid target cells sensitized with peptide
Type: cell-based
Description: Peptides in accordance with the invention can also be used for diagnostic purposes. […] Briefly, fresh peripheral blood mononuclear cells (or lymphocytes obtained from biopsy material) are prepared and added at ratios of 50:1, 25:1 and 10:1 to 10^4 51 -chromium labelled B lymphoblastoid cells matched for the relevant HLA molecules. The HLA type of patient is determined in known manner by tissue typing, and B lymphoblastoid cells obtained from a donor of known HLA type (again determined in known manner by tissue typing) and transformed with Epstein Barr using known techniques. A peptide in accordance with the invention, which interacts with the relevant HLA molecule, is also added to the cells in a concentration of 10 to 100 u molar. After 4 hours incubation the supernatant is removed and the released ^51 -chromium measured. The ^51 -chromium released is compared to that released by incubation of labelled cells in detergent, which gives a maximum value, and released by labelled cells incubated in medium alone, which gives a minimum value. If lysis (defined by ^51 -chromium released of at least two times the minimum value) is observed it means that there are cytotoxic T lymphocytes in the patients' mononuclear cells and these are likely to be indicative of infection with HIV.

Compound | HLA class I molecule with which the peptide interacts specifically | HLA restriction of the peptide (through one or more of the antigens) (HLA restrictions not yet fully worked out)
CC[C@H](C)[C@H](NC(=O)[C@H](Cc1c[nH]cn1)NC(=O)[C@H](CCCCN)NC(=O)[C@H](CC(C)C)NC(=O)[C@H](CCCCN)NC(=O)[C@H](Cc1ccc(O)cc1)NC(=O)[C@H](CCCCN)NC(=O)[C@H](CCCCN)NC(=O)[C@H](CCCCN)NC(=O)CNC(=O)CNC(=O)[C@@H]1CCCN1C(=O)[C@H](CCCNC(=N)N)NC(=O)[C@H](CC(C)C)NC(=O)[C@@H](N)CS)C(=O)N[C@H](C(=O)O)C(C)C [p17-3, NH2 -cysteine-leucine-arginine-proline-glycine-glycine-lysine-lysine-lysine-tyrosine-lysine -leucine-lysine-histidine-isoleucine-valine-COOH] | HLA B8 | –
CC(C)C[C@H](NC(=O)[C@@H](NC(=O)[C@H](C)NC(=O)[C@@H](NC(=O)[C@@H](NC(=O)[C@H](CC(N)=O)NC(=O)[C@H](Cc1ccc(O)cc1)NC(=O)[C@H](CC(C)C)NC(=O)[C@H](CO)NC(=O)[C@H](CCCNC(=N)N)NC(=O)[C@H](CC(C)C)NC(=O)[C@H](CCC(=O)O)NC(=O)[C@H](CCC(=O)O)NC(=O)[C@H](CO)NC(=O)CNC(=O)[C@@H](N)CS)[C@@H](C)O)C(C)C)[C@@H](C)O)C(=O)O [p17-8, NH2 -cysteine-glycine-serine-glutamic acid-glutamic acid-leucine-arginine-serine-leucine-tyrosine-asparagine-threonine-valine- alanine-threonine-leucine-COOH] | HLA A2 | –
CC(C)C[C@H](NC(=O)[C@@H](NC(=O)[C@H](CCCCN)NC(=O)[C@H](Cc1ccc(O)cc1)NC(=O)[C@H](Cc1ccccc1)NC(=O)[C@H](CCCNC(=N)N)NC(=O)[C@H](CC(=O)O)NC(=O)[C@@H](NC(=O)[C@H](Cc1ccc(O)cc1)NC(=O)[C@H](CC(=O)O)NC(=O)[C@H](CCCNC(=N)N)NC(=O)[C@@H](N)Cc1ccccc1)C(C)C)[C@@H](C)O)C(=O)N[C@@H](CCCNC(=N)N)C(=O)N[C@@H](C)C(=O)N[C@@H](CCC(=O)O)C(=O)N[C@@H](CS)C(=O)O [p24-7, NH2-phenylalanine-arginine-aspartic acid-tyrosine-valine-aspartic acid-arginine-phenylalanine-tyrosine-lysine-threonine-leucine-arginine-alanine-glutamic acid-cysteine-COOH] | – | HLA-A3 or A29 or B44 or B14
